According to the CheMixHub viscosity set:

Assay: xn = mol fraction of the nth substance listed
Conditions: 100 kPa

OCCOCCOCCOCCO + CN(C)C=O
viscosity [mPa·s]
Conditions	293.15 K	298.15 K	303.15 K	308.15 K	313.15 K	318.15 K
x1 = 0.0194	1.01	0.955	0.891	0.843	0.784	0.746
x1 = 0.0401	1.14	1.06	0.99	0.929	0.87	0.826
x1 = 0.0623	1.32	1.24	1.14	0.999	0.992	0.869
x1 = 0.086	1.54	1.43	1.31	1.14	1.14	1.07
x1 = 0.1115	1.87	1.72	1.54	1.33	1.33	1.24
x1 = 0.1389	2.22	2.03	1.83	1.69	1.54	1.42
x1 = 0.1685	2.66	2.4	2.16	2	1.8	1.53
x1 = 0.2006	3.19	2.86	2.55	2.31	2.11	1.91
x1 = 0.2354	3.87	3.44	3.03	2.76	2.47	2.24
x1 = 0.2734	4.75	4.17	3.66	3.29	2.92	2.64
x1 = 0.315	5.87	5.11	4.42	3.95	3.48	3.12
x1 = 0.3608	7.34	6.31	5.41	4.8	4.19	3.73
x1 = 0.4114	9.17	7.82	6.65	5.85	5.06	4.45
x1 = 0.4675	11.7	9.84	8.24	7.19	6.18	5.38
x1 = 0.5303	14.9	12.5	10.3	8.9	7.57	6.52
x1 = 0.6008	19.2	16	13	11.1	9.33	7.96
x1 = 0.6808	25.1	20.5	16.5	13.9	11.5	9.79
x1 = 0.772	32.9	26.5	21	17.6	14.1	12.2
x1 = 0.8773	43.9	34.7	27.2	22.4	17.6	15.3
